Assay results: publication PMC6838151, “New diphenylphosphane derivatives of ketoconazole are promising antifungal agents” (Scientific Reports, 2019)

Experiments:
[1] = system: C. albicans B4; type: cell-based, Candida albicans; conditions: B4 vs B3
[2] = system: hASCs (p53, p21, BAX, BCL-2 transcripts); assay: Apoptosis-related transcripts by qRT-PCR in hASCs; type: cell-based, human; conditions: 20 µM, 24 h, vs control, differences not significant
Description: Cellular apoptosis level was assessed using quantitative reverse transcriptase real-time polymerase chain reaction (qRT-PCR). First, the cells were seeded in a 24-well plate at a concentration of 3 × 10^4 cells/well in DMEM with Nutrient F-12 Ham complete medium and left in the CO2 incubator overnight to allow cells to attach. The compounds (Ke, KeP and KeOP) were diluted in the fresh complete medium to a final concentration of 20 μM. After 24 h of challenge with the compounds, the cells were homogenized with TRI Reagent and total RNA was isolated by phenol-chloroform extraction and ethanol precipitation. RNA purity and quantity were measured at a wavelength of 260 and 280 nm (Epoch, Biotek). […] The expression levels of p53 tumor suppressor, cyclin dependent kinase inhibitor 1A (p21), apoptosis regulators BAX and BCL-2 were determined. qRT-PCR was performed on a CFX Connect^TM Real-Time PCR Detection System (Bio-Rad) using SensiFast SYBR & Fluorescein Kit (Bioline, Cincinnati, OH, USA) and primer pairs as listed in Table S4 in ESI. […] The quantitative expression of the genes was calculated by the 2^−ΔΔCT method using GAPDH as housekeeping genes.
Statistical analysis was performed with GraphPad Prism 5 software (San Diego, USA). All data values are presented as mean ± SD, measured in triplicates or more. […]

[3] = system: murine bone marrow cells; parameters: method as in PMID 19967519; conditions: murine vs human bone marrow cells; cited from earlier work

SMILES: CC(=O)N1CCN(c2ccc(OCC3COC(Cn4ccnc4)(c4ccc(Cl)cc4Cl)O3)cc2)CC1 (stereo not shown) [Ke, ketoconazole]
- times higher resistance of B4 than B3 [1]: eight
- relative expression level of BAX [2]: higher
- relative expression level of BCL-2 [2]: higher
- IC50 fold higher for murine bone marrow cells in comparison to the human cells [3]: ~3 fold
